Calls of active or inactive are those of the source. The rule behind the calls is not given here.
How the values were obtained:
Format in all cases: cell-based
[1] = molecular target: Serine/threonine-protein kinase TBK1 (Homo sapiens) (UniProt Q9UHD2); test: Induction of TBK1 phosphorylation in human THP-1 cells at 2.5 to 10 uM preincubated with compound for 1 hrs followed by cGAMP addition and measured after 12 hrs by Western blot analysis; conditions: filed as activator, dose 2.5-10 µM, time 13.0 hrs
[2] = molecular target: Stimulator of interferon genes protein (Homo sapiens) (UniProt Q86WV6); test: Activation of STING signaling pathway in human THP-1 cells assessed as increase in cGAMP-induced IFNB1 mRNA expression incubated for 12 hrs by qRT-PCR analysis; conditions: filed as activator, dose 0.6-10 µM
[3] = molecular target: Stimulator of interferon genes protein (Homo sapiens) (UniProt Q86WV6); test: Activation of STING signaling pathway in human THP-1 cells assessed as increase in cGAMP-induced IL6 mRNA expression incubated for 12 hrs by qRT-PCR analysis; conditions: filed as activator, dose 0.6-10 µM
[4] = molecular target: Stimulator of interferon genes protein (Homo sapiens) (UniProt Q86WV6); test: Activation of STING signaling pathway in human THP-1 cells assessed as increase in cGAMP-induced CXCL10 mRNA expression at 10 uM measured upto 36 hrs by qRT-PCR analysis; conditions: filed as activator
[5] = molecular target: Stimulator of interferon genes protein (Homo sapiens) (UniProt Q86WV6); test: Activation of STING signaling pathway in human THP-1 cells assessed as increase in cGAMP-induced CXCL10 mRNA expression incubated for 12 hrs by qRT-PCR analysis; conditions: filed as activator, dose 0.6-10 µM
[6] = molecular target: T1, Stimulator of interferon genes protein (Mus musculus) (UniProt Q3TBT3); test: Activation of STING signaling pathway in mouse RAW264.7 cells assessed as increase in cGAMP-induced CXCL10 mRNA expression incubated for 12 hrs by qRT-PCR analysis; conditions: filed as activator
T1 sequence (whole entry): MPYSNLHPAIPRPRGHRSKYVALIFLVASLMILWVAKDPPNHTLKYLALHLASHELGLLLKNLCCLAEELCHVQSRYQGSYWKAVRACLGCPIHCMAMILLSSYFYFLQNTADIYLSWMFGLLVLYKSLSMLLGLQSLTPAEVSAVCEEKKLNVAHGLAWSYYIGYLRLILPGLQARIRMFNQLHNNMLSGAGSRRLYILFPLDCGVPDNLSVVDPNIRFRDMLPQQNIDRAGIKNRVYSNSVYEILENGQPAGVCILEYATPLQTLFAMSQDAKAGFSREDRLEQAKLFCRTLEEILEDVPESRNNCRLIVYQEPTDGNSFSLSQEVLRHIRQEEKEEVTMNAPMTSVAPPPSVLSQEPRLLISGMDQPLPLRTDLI

By UniProt entry, the sequences of proteins in these tests, tags left out. Where a name states a change or a piece, a line headed by the entry shows the natural chain unless it says otherwise.
UniProt Q9UHD2: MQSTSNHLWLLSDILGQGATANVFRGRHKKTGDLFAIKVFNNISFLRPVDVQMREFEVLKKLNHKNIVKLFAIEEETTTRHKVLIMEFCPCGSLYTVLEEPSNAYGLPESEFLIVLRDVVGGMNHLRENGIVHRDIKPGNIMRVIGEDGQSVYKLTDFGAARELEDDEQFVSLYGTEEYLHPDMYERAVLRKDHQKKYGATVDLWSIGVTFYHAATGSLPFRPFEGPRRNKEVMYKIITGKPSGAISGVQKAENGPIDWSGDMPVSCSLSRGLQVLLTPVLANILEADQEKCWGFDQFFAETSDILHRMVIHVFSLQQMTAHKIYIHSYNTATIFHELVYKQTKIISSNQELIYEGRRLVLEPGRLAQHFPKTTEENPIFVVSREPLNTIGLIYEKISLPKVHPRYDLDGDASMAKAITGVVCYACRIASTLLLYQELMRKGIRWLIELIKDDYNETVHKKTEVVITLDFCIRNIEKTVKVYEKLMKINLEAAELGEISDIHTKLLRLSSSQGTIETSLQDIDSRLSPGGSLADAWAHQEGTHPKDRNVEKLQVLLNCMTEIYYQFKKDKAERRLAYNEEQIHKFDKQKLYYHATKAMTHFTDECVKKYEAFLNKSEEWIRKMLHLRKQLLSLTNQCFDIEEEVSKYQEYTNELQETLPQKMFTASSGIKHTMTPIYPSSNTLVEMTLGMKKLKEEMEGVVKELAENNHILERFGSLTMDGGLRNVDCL
UniProt Q86WV6: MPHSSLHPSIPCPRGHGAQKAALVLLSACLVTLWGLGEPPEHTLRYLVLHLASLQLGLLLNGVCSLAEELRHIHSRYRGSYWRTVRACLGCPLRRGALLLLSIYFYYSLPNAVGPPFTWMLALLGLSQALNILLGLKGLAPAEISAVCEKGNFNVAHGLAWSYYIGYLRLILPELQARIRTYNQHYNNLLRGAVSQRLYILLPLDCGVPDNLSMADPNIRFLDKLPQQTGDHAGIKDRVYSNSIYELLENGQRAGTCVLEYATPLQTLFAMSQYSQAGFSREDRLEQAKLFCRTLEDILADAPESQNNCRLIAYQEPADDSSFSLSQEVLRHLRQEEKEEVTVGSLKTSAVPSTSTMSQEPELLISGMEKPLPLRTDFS

[7] = molecular target: T1, Stimulator of interferon genes protein (Mus musculus); test: Activation of STING signaling pathway in mouse RAW264.7 cells assessed as increase in cGAMP-induced IL6 mRNA expression incubated for 12 hrs by qRT-PCR analysis; conditions: filed as activator
[8] = molecular target: T1, Stimulator of interferon genes protein (Mus musculus); test: Activation of STING signaling pathway in mouse RAW264.7 cells assessed as increase in cGAMP-induced IFNB1 mRNA expression incubated for 12 hrs by qRT-PCR analysis; conditions: filed as activator
[9] = molecular target: Stimulator of interferon genes protein (Homo sapiens) (UniProt Q86WV6); test: Induction of STING phosphorylation in human THP-1 cells at 2.5 to 10 uM preincubated with compound for 1 hrs followed by cGAMP addition and measured after 12 hrs by Western blot analysis; conditions: filed as activator, dose 2.5-10 µM, time 13.0 hrs
[10] = molecular target: Stimulator of interferon genes protein (Homo sapiens) (UniProt Q86WV6); test: Activation of STING signaling pathway in human THP-1 cells assessed as increase in cGAMP-induced IL6 mRNA expression at 10 uM measured upto 36 hrs by qRT-PCR analysis; conditions: filed as activator
[11] = molecular target: T2, Interferon regulatory factor 3 (Homo sapiens) (UniProt Q14653); test: Induction of IRF3 phosphorylation in human THP-1 cells at 2.5 to 10 uM preincubated with compound for 1 hrs followed by cGAMP addition and measured after 12 hrs by Western blot analysis; conditions: filed as activator, dose 2.5-10 µM, time 13.0 hrs
T2 sequence (whole entry): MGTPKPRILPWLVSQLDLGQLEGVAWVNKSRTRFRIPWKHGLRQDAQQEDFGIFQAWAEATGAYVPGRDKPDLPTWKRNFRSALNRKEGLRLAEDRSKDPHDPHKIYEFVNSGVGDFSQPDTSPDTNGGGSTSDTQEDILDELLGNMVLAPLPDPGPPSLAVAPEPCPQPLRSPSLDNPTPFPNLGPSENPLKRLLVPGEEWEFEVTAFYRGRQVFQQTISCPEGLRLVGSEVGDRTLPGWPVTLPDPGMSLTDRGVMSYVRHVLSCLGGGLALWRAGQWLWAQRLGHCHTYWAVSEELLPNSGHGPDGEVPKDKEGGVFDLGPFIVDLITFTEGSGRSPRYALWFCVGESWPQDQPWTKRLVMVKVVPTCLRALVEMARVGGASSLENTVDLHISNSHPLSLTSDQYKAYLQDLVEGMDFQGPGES

[12] = molecular target: Stimulator of interferon genes protein (Homo sapiens) (UniProt Q86WV6); test: Activation of STING signaling pathway in human THP-1 cells assessed as increase in cGAMP-induced IFNB1 mRNA expression at 10 uM measured upto 36 hrs by qRT-PCR analysis; conditions: filed as activator

Activity [1]: Active
Activity [2]: Dose-Dependent Effect
Activity [3]: Dose-Dependent Effect
Activity [4]: Active
Activity [5]: Dose-Dependent Effect
Activity [6]: Active
Activity [7]: Active
Activity [8]: Active
Activity [9]: Active
Activity [10]: Active
Activity [11]: Active
Activity [12]: Active
SMILES: COc1cccc(F)c1-c1nc(C(=O)Nc2cc(F)ccc2N2CCC(NS(N)(=O)=O)CC2)cn2ccnc12
